## Binding of CDR-mutated scFvs to a peptide of the spike HR2 region

The measurements come from Li et al. 2023 (doi:10.1038/s41467-023-39022-2) through the FLAb antibody collection.

Target: peptide PDVDLGDISGINAS, taken from heptad repeat 2 (HR2) of SARS-CoV-2 spike.

Parent: Ab-14, a human scFv built as VH, three GGGGS repeats, VL. Only the CDRs of the heavy chain vary.
VH: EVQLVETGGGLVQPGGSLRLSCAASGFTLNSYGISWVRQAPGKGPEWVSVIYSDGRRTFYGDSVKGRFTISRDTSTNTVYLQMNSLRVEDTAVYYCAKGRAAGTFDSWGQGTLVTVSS
VL: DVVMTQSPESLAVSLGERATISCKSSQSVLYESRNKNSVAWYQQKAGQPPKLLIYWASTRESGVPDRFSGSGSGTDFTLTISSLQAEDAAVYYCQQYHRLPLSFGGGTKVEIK

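The variants were designed computationally from a first round of random CDR variants and then made and measured. Several design methods are mixed in this list. Affinity was read by AlphaSeq, a pooled yeast mating assay with surface-displayed partners. After mating in shaken culture at 30 °C for 16 h, diploids were selected and their barcode pairs sequenced. The ratio of observed to expected reads was calibrated, replicate by replicate, on BCL2-family standards whose Kd was known from biolayer interferometry. Each pool was mated in six replicate cultures.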

Positions count from residue 1 of the parent VH; G26K puts K in place of G. Variants here have at most six changes. Values are log10 of the apparent Kd in nM; lower means stronger binding. Replicates are averaged; those with no signal do not enter the mean. "nd" means that the variant was in the library but no mating with the target was seen in any replicate; the authors take this as a sign of poor binding, and no number exists. Three control strains display no target. For all heavy chain designs, 1% of the pairings with them gave a signal, with a median of 2.08 and one signal in twenty below 0.84, so weak values seen in few replicates may be background.

G26K+G61D+A101L: 1.47 (1 of 6 replicates).
S31N+F59Q+G61I+R100Q: 0.91 (5 of 6 replicates).
R56L+R100K: 0.93 (1 of 6 replicates).
S53A+A101V+D106K+S107I: 1.28 (4 of 6 replicates).
T28S+S31E+R100P+S107K: 1.75 (1 of 6 replicates).
T28E+R100V+A101N: 0.98 (6 of 6 replicates).
T28D+S63R+R100N+A101T: 1.41 (4 of 6 replicates).
T28E+G61T+S63D+R100N+A101T: 0.34 (6 of 6 replicates).
S31E+G61T+S63A+A101T: 0.63 (5 of 6 replicates).
N30S+R56K+S63D+D106P: nd (0 of 6 replicates).
S31E+S63D+R100E+D106K: 1.01 (6 of 6 replicates).
T28N+A101T+S107A: 0.95 (5 of 6 replicates).
G26A+N30E+S53A: 0.80 (6 of 6 replicates).
S53A+R56V+R100T: -0.26 (6 of 6 replicates).
G61D+D62M+R100Q+A101L: 2.10 (1 of 6 replicates).
T28D+S63N+R100K+A101T: 0.30 (6 of 6 replicates).
S31D+G61A+S107T: -0.03 (6 of 6 replicates).
G26K+T28S+S31E+R100K: nd (0 of 6 replicates).
T28N+S63N+R100N: 0.68 (6 of 6 replicates).
S31E+R56K+G61S+T104F: -0.03 (6 of 6 replicates).
R100E+A101M+T104V+S107K: nd (0 of 6 replicates).
S31E+I51A+Y60S+G61T+A101F+T104S: nd (0 of 6 replicates).
L29I+G61I: 1.98 (4 of 6 replicates).
T28N+G61I+R100Q+A101E: 0.72 (3 of 6 replicates).
S31D+A101T+D106T+S107L: 0.58 (6 of 6 replicates).
T28W+S35Q+A101E: nd (0 of 6 replicates).
L29I+S31D+A101N+F105M+D106P: 0.42 (6 of 6 replicates).
T28E+R100Q+A101E: 0.26 (6 of 6 replicates).
T28S+S31E+A101N: -0.21 (6 of 6 replicates).
R56C+G61Y: nd (0 of 6 replicates).
T28N+A101T+S107C: nd (0 of 6 replicates).
Y60I+G61D: 3.09 (3 of 6 replicates).
L29N+R100T+A101Q+T104P: nd (0 of 6 replicates).
N30D+G61A+R100Q+A101L: 0.10 (6 of 6 replicates).
F59M+S63D+R100K: 2.21 (5 of 6 replicates).
T28N+S35T+A102E: 3.95 (1 of 6 replicates).
G26K+F27T+G61T: 2.03 (5 of 6 replicates).
T28S+S31D+A101Q+D106I: -0.64 (6 of 6 replicates).
S63R+R100S+A101W: nd (0 of 6 replicates).
T28K+F59A+S107T: 1.62 (6 of 6 replicates).
G61A+A102K: nd (0 of 6 replicates).
S31D+S53A+F59R+G61Q+A101D: 0.58 (6 of 6 replicates).
N30E+S53A+A101Q: nd (0 of 6 replicates).
N30T+S53A+D106W: nd (0 of 6 replicates).
L29I+R56Y: 1.51 (1 of 6 replicates).

Again, the first 4 entries without any signal:

{"changes": "N30S+R56K+S63D+D106P", "mean, log10 nM": "nd", "replicates with signal": "0 of 6"}
{"changes": "G26K+T28S+S31E+R100K", "mean, log10 nM": "nd", "replicates with signal": "0 of 6"}
{"changes": "R100E+A101M+T104V+S107K", "mean, log10 nM": "nd", "replicates with signal": "0 of 6"}
{"changes": "S31E+I51A+Y60S+G61T+A101F+T104S", "mean, log10 nM": "nd", "replicates with signal": "0 of 6"}

The range of this assay differs from that of the first round, and the authors advise against merging the two. The authors averaged sequences with at least three values out of six and counted those with two or fewer as poor binders.